The compounds below were run against ULK1 (Homo sapiens, UniProt O75385) (assay: Inhibition of ULK1 protein activity (ADP-Glo method)). Conditions: read-out: ULK1 IC50, ULK1 enzyme, ATP and MBP substrate, 60 min room temperature.
Protocol: In this experiment, the inhibitory effect of a compound on the phosphorylation function of ULK1 was detected by ADP-Glo method. The inhibitory effect of the compound of the present disclosure on the ULK1 target was evaluated based on IC50.
Compound formulation: Using an ECHO (Beckman, ECHO650), the compound was serially diluted 3-fold in DMSO in a 384-well plate (PE, 6007290). A total of 10 concentration points were set, with the maximum concentration of the compound being 10 μM, and 50 nL per well. Positive control wells and negative control wells were added with 50 nL DMSO, respectively.
Reaction process: A 32 nM of ULK1 (Promega, V3521) solution was formulated, and 2.5 μL/well was transferred to the compound test wells and the negative control wells (NC). 2.5 μL/well of 1× Assay buffer was added to the positive control wells (PC). A mixed solution of 100 μM of ATP and 1.86 μM of MBP was formulated, and 2.5 μL/well was transferred to the reaction plate. After centrifugation, the reaction was initiated and incubated at room temperature for 60 min. After the reaction was completed, 5 μL/well of ADP-Glo Reagent (Promega, V9102) was added to the reaction plate. After centrifugation, the reaction was incubated at room temperature for 40 minutes. Finally, 10 μL/well of Kinase Detection Buffer was added, followed by centrifugation and incubation at room temperature for 30 min. The chemiluminescence value was read using Envision (PE, Envision2105).
Assay buffer: a reaction buffer; and Kinase Detection buffer: a detection buffer, both were taken from the ADP-Glodetection kit, purchased from Promega, model V9102. 3. Data analysis
The inhibition ratio of a compound on ULK1 activity was calculated using the following formula:
Inhibition ratio=(sample signal value−negative control signal value)/(positive control signal value−negative control signal value)×100%. The dose-effect curve was fitted using the log(inhibitor) vs. response -Variable slope of the analysis software GraphPad Prism 8, thereby affording the IC50 value of each compound for enzyme activity.

Amino acid sequences for entries named in this document (tags omitted). Residues count along the entry.
UniProt O75385, 1-649 limits assumed: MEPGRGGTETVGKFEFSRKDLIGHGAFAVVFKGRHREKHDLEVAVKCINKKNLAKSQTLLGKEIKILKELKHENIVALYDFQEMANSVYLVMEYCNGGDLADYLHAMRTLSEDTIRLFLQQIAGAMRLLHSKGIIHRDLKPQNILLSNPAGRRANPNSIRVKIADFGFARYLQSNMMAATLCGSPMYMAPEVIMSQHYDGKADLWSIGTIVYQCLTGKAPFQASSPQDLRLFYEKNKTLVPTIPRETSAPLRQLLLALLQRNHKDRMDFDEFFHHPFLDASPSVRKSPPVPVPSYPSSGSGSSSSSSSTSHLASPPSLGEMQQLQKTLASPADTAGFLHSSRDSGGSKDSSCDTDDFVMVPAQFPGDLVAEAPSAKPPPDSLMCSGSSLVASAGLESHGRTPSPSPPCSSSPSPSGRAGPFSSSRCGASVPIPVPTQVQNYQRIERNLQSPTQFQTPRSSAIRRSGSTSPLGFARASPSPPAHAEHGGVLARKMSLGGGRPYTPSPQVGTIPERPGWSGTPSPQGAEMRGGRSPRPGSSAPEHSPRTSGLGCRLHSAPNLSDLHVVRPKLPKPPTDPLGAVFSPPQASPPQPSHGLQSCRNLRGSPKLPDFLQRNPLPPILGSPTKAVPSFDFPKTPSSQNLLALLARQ

Structure (SMILES)	IC50 [nM]
CN1CCN(c2ccc(Nc3ncc(C(F)(F)F)c(OCCCc4ccccc4C#N)n3)c(C3CC3)c2)CC1	< 100
CN1CCN(c2ccc(Nc3ncc(C(F)(F)F)c(CN4CCN(C)C(=O)C4)n3)c(C3CC3)c2)CC1	> 1000
CN1CCc2cc(Nc3ncc(C(F)(F)F)c(OCCCn4cccn4)n3)ccc2C1	< 100
